Earlier results in US4245096A, “Bis-(2,4-dinitrophenyl)-methyl-pyridinium and quinolinium compounds” (dated 1981).
Only a part of the results on these compounds is given; other tests are left out.

Conditions: known compounds, background

In the case of hexanitrophenylmethane, the absorption is listed as “usable absorption” and the “solubility or pK value” is listed as “too low a solubility or too high a pK value”.
